## Antibody variant affinities, Ab-14 light chain, assay B

Reference: Li et al. 2023, doi:10.1038/s41467-023-39022-2. File: FLAb, binding data.

All variants were tested on one target, the spike HR2 peptide PDVDLGDISGINAS (SARS-CoV-2).

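The starting antibody came from a phage panning campaign against this peptide. These sequences belong to a second round, designed from the earlier measurements on random variants of the parent. Several design methods are mixed in this list. The assay is AlphaSeq: two haploid yeast populations carry antibody and antigen on their surface. Binding brings cells together so that they mate, and sequencing counts the barcode pairs among the diploids. The ratio of observed to expected reads was calibrated, replicate by replicate, on BCL2-family standards whose Kd was known from biolayer interferometry. The assay was run in six technical replicates.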

Parent scFv Ab-14: VH joined to VL by a 15-residue (Gly4Ser)3 linker. Changes lie in the light chain CDRs alone.
VH: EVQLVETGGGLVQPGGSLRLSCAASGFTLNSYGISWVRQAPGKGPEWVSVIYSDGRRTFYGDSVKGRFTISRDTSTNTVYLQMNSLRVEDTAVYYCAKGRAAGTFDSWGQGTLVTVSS
VL: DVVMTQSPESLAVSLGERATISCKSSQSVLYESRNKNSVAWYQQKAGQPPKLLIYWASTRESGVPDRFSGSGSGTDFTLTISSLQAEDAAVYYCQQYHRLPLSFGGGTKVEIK

Each variant is given by its three light chain CDRs, as the data file delimits them; those of the parent are KSSQSVLYESRNKNSVA, WASTRES, QQYHRLPLS. Variants here have at most six changes. Values are log10 of the apparent Kd in nM; lower means stronger binding. Replicates are averaged; those with no signal do not enter the mean. A pair that was not seen in any replicate is written "no signal"; this usually means weak binding, but a binder can also be missed. Background: pairings of all light chain designs with three empty control strains gave a value in 4% of cases (median 2.64, 5th percentile 1.59). Values in that range, when seen in few replicates, are hard to tell from nonspecific mating. The control count says in how many pairings with the empty strains this scFv gave a signal. Values of this round are not directly comparable with the first-round values of the same sequences. The authors averaged sequences with at least three values out of six and counted those with two or fewer as poor binders. Of ten entries with the parent sequence, four were seen in most replicates (averages 0.34 to 2.37), three in one and three in none, so single entries are noisy. Where one sequence has several entries in the source, the replicates are pooled.

With KSSQSVVYESREKNSVA | GASTRED | QQYHRLPLS the result was 0.08 (6 of 6 replicates; controls 1 of 18).
With KLEQSQLYESRNKNSVA | NASTREV | QQYHRLPLS the result was -0.12 (6 of 6 replicates; controls 1 of 18).
With KFSQSVLYESRNSNSVA | DASTRES | QQYHRLPLS the result was -0.05 (6 of 6 replicates; controls 1 of 18).
With KSSQSVLYESENKNSVA | NASTRMS | QQYHRLPLS the result was 0.21 (6 of 6 replicates; controls 2 of 18).
With KLSQSVLYEDRNKNSVA | SASTRSS | QQYHRLPLS the result was -0.23 (6 of 6 replicates; controls 1 of 18).
With KSSQSWLYESRNKNSVA | EASAREV | QQYHRLPLS the result was 0.41 (6 of 6 replicates; controls 1 of 18).
With KMSQSKLMESRNKNSVA | WASTRES | FSYHRLPLS the result was 0.96 (3 of 6 replicates; controls 0 of 18).
With KLQQSDLYESRVKNSVA | QASVRES | QQYHRLPLS the result was -0.16 (6 of 6 replicates; controls 0 of 18).
With KSRQSVLYESRNKNSVA | WASTREH | QQYHRLPLS the result was 0.47 (6 of 6 replicates; controls 1 of 18).
With KLSQSELMESRNKNSVA | NASTRLS | QQYHRLPLS the result was -0.27 (6 of 6 replicates; controls 1 of 18).
With KVSQSDLYESRNKNSVA | NASQRES | QQYHRLPLS the result was 0.93 (6 of 6 replicates; controls 0 of 18).
With KISFSVLYESLNKNSVA | WASTREP | QQYHRLPLY the result was 1.57 (3 of 6 replicates; controls 0 of 18).
With KSSQSVGMESRNKNSVA | DASTRES | QQYHRLPLS the result was -0.12 (6 of 6 replicates; controls 0 of 18).
With KFSQSELYESRTKNSVA | NASTRES | QQYHQLPLS the result was 0.19 (6 of 6 replicates; controls 1 of 18).
With KLSQSVMYESRNKNSVA | EASTRED | QQYHRLPLS the result was -0.51 (6 of 6 replicates; controls 0 of 18).
With KLSQSVPYESRNKNSVA | WAKTRES | QQYHRGPLS the result was no signal (0 of 6 replicates; controls 0 of 18).
With KSRPSVLYESTNKNSVA | WASTRES | QAYHRLPLS the result was 2.30 (2 of 6 replicates; controls 0 of 18).
With KFSQSVLYESRMSNRVA | NASTRES | QQYHRLPLS the result was 0.23 (6 of 6 replicates; controls 0 of 18).
With KSSQYVLYESRNKNSVA | WASTRES | QQYHRLPTS the result was no signal (0 of 6 replicates; controls 0 of 18).
With KLSQSELYESRNKNSVA | NASTRED | QQYHRLPLS the result was -0.37 (6 of 6 replicates; controls 1 of 18).
With KFSQSVLYESRTKNSVA | EAVTRET | QQYHRLPLS the result was 0.08 (6 of 6 replicates; controls 0 of 18).
With KSNIEVLYESRNKNSVA | WASTRES | QQYDRLPLS the result was 1.75 (4 of 6 replicates; controls 0 of 18).
With KFGQGVLYESRNKNSVA | GASQRWS | QQYHRLPLS the result was 0.12 (6 of 6 replicates; controls 0 of 18).
With KSSTSVLYESRNKNSVA | WAFTRES | QQYHRLPLS the result was 2.15 (1 of 6 replicates; controls 0 of 18).
With KLSQSVLYESRNKWSVA | DASTRES | QQYHRLPLS the result was -0.11 (6 of 6 replicates; controls 1 of 18).
With KMSQSVLYESRNKNSVA | EASTRES | QQYHRLPLS the result was -0.13 (12 of 12 replicates; controls 1 of 36).
With KISQSVLYESRNKNSVA | MASTRES | QQYHRLPLS the result was 0.04 (6 of 6 replicates; controls 0 of 18).
With KLEQSWPYESRNKNSVA | NASTRES | QQYHRLPLS the result was 1.00 (6 of 6 replicates; controls 1 of 18).
With KSSYHVLYESRNKNSVA | WASTRES | QQYHRLPLS the result was 2.12 (1 of 6 replicates; controls 0 of 18).
With KSSQSVLYESRNKNSVA | WASTRES | QQYHRLQLS the result was no signal (0 of 6 replicates; controls 0 of 18).
With KSSQSVLAERRNKNSVA | WASTREI | QQYHRLPLS the result was 2.30 (1 of 6 replicates; controls 1 of 18).
With KDSQSVLYESRNKNSVA | WASTRES | QQYARLPLS the result was 1.00 (3 of 6 replicates; controls 0 of 18).
With KLSISGLYESRMKNSVA | EASTRES | QQYHRLPLS the result was -0.78 (6 of 6 replicates; controls 0 of 18).